From US20240376218A1 (published 2024) come the findings set out here.

This experiment deals with human CCR8 (human, UniProt P51685). The experiment is described as follows: cell-based or functional assay.

B1: TPP-27478 (antibody, human IgG1, lambda)
heavy: EVQLLESGGGLVQPGGSLRLSCAASGFTFSSYGMHWVRQAPGKGLEWVSAINWNGGSTGYADSVKGRFTISRDNSKNTLYLQMNSLRAEDTAVYYCARGHHSGYDGRFFDYWGQGTLVTVSSASTKGPSVFPLAPSSKSTSGGTAALGCLVKDYFPEPVTVSWNSGALTSGVHTFPAVLQSSGLYSLSSVVTVPSSSLGTQTYICNVNHKPSNTKVDKKV[here human IgG1 Fc without letters]
light: QSVLTQPPSASGAPGQRVTISCTGSSSNIGAGYNVHWYQQLPGTAPKLLIYTNNRRPSGVPDRFSGSKSGTSASLAISGLRSEDEADYYCAAWDASLSGWVFGGGTKLTVLGQPKAAPSVTLFPPSSEELQANKATLVCLISDFYPGAVTVAWKADSSPVKAGVETTTPSKQSNNKYAASSYLSLTPEQWKSHRSYSCQVTHEGSTVEKTVAPTECS
B1: the “ADCP Max Response (%), Incucyte live-imaging; human CCR8-HEK target cells, M2c macrophages as effector cells” value was determined as 10.9%.
